Assay results as given in patent US9435795B2, “Enhanced deposition of chromogens utilizing pyrimidine analogs” (Ventana Medical Systems, Inc., priority 2010, dated 2016).

Amino acid sequences for entries named in this document (tags omitted). Residues count along the entry.
UniProt P00433, 31-338: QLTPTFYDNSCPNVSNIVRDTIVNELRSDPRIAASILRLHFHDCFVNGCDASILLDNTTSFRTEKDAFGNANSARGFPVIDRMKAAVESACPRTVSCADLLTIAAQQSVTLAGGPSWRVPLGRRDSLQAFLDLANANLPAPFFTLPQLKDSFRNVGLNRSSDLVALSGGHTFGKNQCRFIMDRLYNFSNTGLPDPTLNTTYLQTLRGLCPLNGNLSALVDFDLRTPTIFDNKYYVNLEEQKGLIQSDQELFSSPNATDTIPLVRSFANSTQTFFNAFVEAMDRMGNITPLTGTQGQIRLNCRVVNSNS

Biological target: T1, horseradish peroxidase (HRP) (Armoracia rusticana, UniProt P00433)
T1 construct: purchased VMSI (Ventana Medical Systems, Inc.) 760-500: 253-4290, 253-4292 and 253-4293
Test: Plate assay: kinetic screening of enhancers of HRP-mediated DAB oxidation (ultraView Detection Kit, OD 455 nm)
Type: biochemical
Description: The additives were directly added to a well containing the necessary reagents from the ultraView™ Detection Kit (VMSI 760-500: 253-4290, 253-4292 and 253-4293) in 1× Reaction Buffer (VMSI 950-300) and 0.1% fish gelatin. Fish gelatin was used to help disperse the oxidized DAB and inhibit its precipitation from solution. The ultraView™ Detection Kit was diluted to measure the formation of oxidized DAB by UV-VIS at 455 nm. Additives were tested at set concentrations to determine enhancement in the DAB oxidation reaction. The data were graphed, and the apparent maximum velocity (Vmax) was calculated at each additive concentration level.

Structure (SMILES): c1c[nH]cn1 [Imidazole]
- Vmax (apparent, HRP-oxidized DAB): 38.80 mOD/min and 70.00 mOD/min

“And” between values parts separate entries of the source, which are not always exact repeats. Equal entries are not always repeated.
